Data as given in ChEMBL document CHEMBL2401731, “Synthesis and pharmacological evaluation of 2-aryloxy/arylamino-5-cyanobenzenesulfonylureas as novel thromboxane A₂ receptor antagonists” (Eur J Med Chem, 2013).

species: Homo sapiens; experiment: Selectivity index, ratio of IC50 for human thromboxane A2 receptor alpha to IC50 for human thromboxane A2 receptor beta
Outline: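 IC50 at TPα divided by IC50 at TPβ. Both IC50s come from U-46619-stimulated Fluo-4 calcium mobilization in HEK293 cells stably expressing each isoform. Mean ± SD of three separate experiments.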

| SMILES | Ratio IC50 |
| --- | --- |
| Cc1ccccc1Nc1ccc(C#N)cc1S(=O)(=O)NC(=O)NC(C)(C)C | 0.6 |
| Cc1ccc(Nc2ccc(C#N)cc2S(=O)(=O)NC(=O)NC(C)(C)C)cc1 | 0.8 |

Now from value to compound:

| Ratio IC50 | SMILES |
| --- | --- |
| 1.5 | Cc1cccc(Oc2ccc(C#N)cc2S(=O)(=O)NC(=O)NC(C)(C)C)c1 |
| 1.1 | Cc1ccc(Oc2ccc(C#N)cc2S(=O)(=O)NC(=O)NC(C)(C)C)cc1 |
| 2.5 | Cc1ccccc1Oc1ccc(C#N)cc1S(=O)(=O)NC(=O)NC(C)(C)C |
